# Measured values: the OPERA property sets (Mansouri et al. 2018)
row,Structure (SMILES),log10 OH rate constant (cm³/molecule/s)
1,CC(CO[N+](=O)[O-])O[N+](=O)[O-] (configuration not stated),< -12.5
2,CO[N+](=O)[O-],-12.5
